Target: G-protein coupled receptor 68 (Homo sapiens, UniProt Q15743)
Assay: Binding affinity to GPR68 expressed in human HEK293T cells assessed as cAMP production in presence of H+ proton by Split-luciferase based luminescence counter analysis
Format: cell-based
Conditions: filed as positive allosteric modulator
Outline: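 Proton concentration-response of GPR68 (wild type or E160A/K/Q, R189L/M, H269F mutants) in transiently transfected HEK293-T cells. Read-out: GloSensor cAMP, with luciferin loading 90 min at 37°C at pH 8.4. Run with and without increasing modulator concentrations; 20 min at room temperature before luminescence. Proton KA fixed to the proton EC50 without modulator. KB, τA, α, β fitted globally with an operational allosteric model. n=4.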

Sequences of proteins named here, by UniProt entry; tags and fusion partners are left off. A change or cut given only in a name is not applied to a line headed by its entry.
UniProt Q15743: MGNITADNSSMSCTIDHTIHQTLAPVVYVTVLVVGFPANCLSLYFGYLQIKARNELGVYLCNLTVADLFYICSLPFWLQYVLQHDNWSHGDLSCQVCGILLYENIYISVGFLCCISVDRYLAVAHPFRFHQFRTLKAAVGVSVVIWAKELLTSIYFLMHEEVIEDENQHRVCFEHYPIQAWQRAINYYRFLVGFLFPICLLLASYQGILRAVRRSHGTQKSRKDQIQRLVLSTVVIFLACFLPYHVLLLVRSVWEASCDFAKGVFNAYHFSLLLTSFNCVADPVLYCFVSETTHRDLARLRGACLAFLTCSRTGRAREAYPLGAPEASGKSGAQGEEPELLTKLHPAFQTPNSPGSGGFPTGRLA

pKb	Compound
5.08	Nc1nc(NCc2ccccc2)nc(-c2cc(F)cc(F)c2)n1
5.89	Nc1nc(NCc2ccccc2)nc(-c2ccccc2CO)n1 [Ogerin]
4.69	Nc1nc(NCc2ccccc2)nc(-c2cccc(CO)c2)n1 [ZINC32547799]

— ChEMBL document CHEMBL5661984, “Allosteric ligands for the pharmacologically dark receptors GPR68 and GPR65” (Nature, 2015)
